In article PMC3807590:

What was measured:
[1] = target: skTM and TM2; test: FRET or BRET; AEDANS-TM at 0.6 µM titrated with DABMI-actin; quenching of AEDANS fluorescence (excitation 340 nm, emission 495 nm); 2 mM HEPES, pH 7.6, 40 mM NaCl, 5 mM MgCl2 at 22°C
[2] = target: TM5a and TM1b9a; test: as above

## Chicken skeletal muscle α-actin labeled with DABMI at Cys374 (from UniProt P68139 1-377) (natural protein)
[1]
  stoichiometry N (actins per TM): 6 and 7
[2]
  stoichiometry N (actins per TM): 4 and 5

Values joined by “and” are separate entries in the source; they are usually repeats but may differ in a detail not shown here. Equal values may be shown once.
